In patent publication US9492510B2, “Composition and method for inhibiting tumor cell growth” (St. Jude Children's Research Hospital, priority 2006, dated 2016):

Tests used:
[1] = biological target: T1, hCE1 variant hCE1m6 (hCE1mut6; L362M, M363L, K459R, F448Y, Q449R, L358I, S364G, Q362 insertion), SEQ ID NO:3 (Homo sapiens, UniProt P23141, F449Y/K460R/L358I/L363M/M364L/Q450R/S365G); test: Kinetics of CPT-11 hydrolysis by purified hCE1m6; type: biochemical; details: hCE1m6 vs hCE1
T1 sequence (P23141 18-567 L358I/L363M/M364L/S365G/F449Y/Q450R/K460R): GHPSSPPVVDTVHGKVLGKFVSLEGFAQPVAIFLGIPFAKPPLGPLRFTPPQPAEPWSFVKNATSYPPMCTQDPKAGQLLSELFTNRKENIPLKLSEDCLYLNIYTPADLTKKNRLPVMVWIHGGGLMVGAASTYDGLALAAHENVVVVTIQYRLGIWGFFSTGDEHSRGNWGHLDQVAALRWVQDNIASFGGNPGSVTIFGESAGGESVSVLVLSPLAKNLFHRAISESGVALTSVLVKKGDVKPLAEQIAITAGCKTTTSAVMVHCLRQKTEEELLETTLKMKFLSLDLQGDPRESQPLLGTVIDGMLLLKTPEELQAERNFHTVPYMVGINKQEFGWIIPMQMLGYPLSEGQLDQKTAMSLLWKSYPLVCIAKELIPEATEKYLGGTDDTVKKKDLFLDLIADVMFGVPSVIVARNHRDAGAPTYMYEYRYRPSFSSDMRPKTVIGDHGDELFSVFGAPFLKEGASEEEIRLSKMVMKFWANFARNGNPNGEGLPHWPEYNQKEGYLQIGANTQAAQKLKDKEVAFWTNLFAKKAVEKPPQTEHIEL
Text: These experiments determined the Km, Vmax, kcat and kcat/Km values for the different enzymes.
Protein Purification. […] For hiCE, an alternative purification procedure was developed using DEAE chromatography and elution with a pH/salt gradient.
Determination of Kinetic Parameters for Substrate Hydrolysis.

U373MG cells [2] = test: Growth inhibition of U373MG cells expressing intracellular or secreted hCE1mut6 by CPT-11; type: cell-based, human; details: cells expressing hCE1mut6 (either form)
Experimental: Experiments were also performed to determine whether cells expressing a secreted form of hCElm6 (SEQ ID NO:16) produced media that had CE activity.
Growth Inhibition Assays.

U373MG cells [3] = details: media from secreted hCE1mut6 cells (pIRESmut6C) vs control (pIRESneo)

For `CCc1c2c(nc3ccc(OC(=O)N4CCC(N5CCCCC5)CC4)cc13)-c1cc3c(c(=O)n1C2)COC(=O)[C@]3(O)CC` [CPT-11, 7-ethyl-10-[4-(1-piperidino)-1-piperidino]carbonyloxycamptothecin], the “more efficient at CPT-11 hydrolysis as compared to hCE1” value [1] was roughly 70 fold, the “reduction in the IC50 value for CPT-11” value (U373MG cells [2]) was roughly 130 fold and the “difference in the IC50 values” (U373MG cells [3]) was “approximately 150 fold”.
